Broadly, the EC50 (read off the curve) is the concentration needed to bring the measured effect to its halfway point.

One assay addresses Biotin hu TNFa (human) (UniProt P01375). Kind of assay: ELISA analogous to FIG. 3A: antibody coated, biotinylated human TNFa titrated (x axis Biotin hu TNFa, nM), OD 450nm.
The target of assay [1] is recombinant biotinylated human Fc gamma receptor I (FcγRI/CD64) (human) (UniProt P12314). The assay is described as drawn: OD against the concentration of the receptor ([FcRI]nM), rising curves, panel 'FcRI - anti TNFa'; the text speaks of an AlphaLISA signal and antibody dosage. On the technique in general: Bead proximity is the source of the signal in Alpha formats.
In assay [2] the target is recombinant biotinylated human neonatal Fc receptor (FcRn) (human) (UniProt P55899). In words: AlphaLISA competition (analogous to FIG. 5A): test antibody titrated against biotinylated human FcRn; competitor: human IgG on acceptor beads; y axis AlphaLISA FcRn-IgG binding, 0-120.

Turning to “CMP-089 (antibody; other documents disagree on this pair)”, the EC50 (read off the curve) with Biotin hu TNFa (human) is 0.07 nM; in assay [1], 0.05 nM.

For the substance CMP-090 (antibody), the IC50 (read off the curve) in assay [2] worked out at 20 nM.

Consider “CMP-091 (biosimilar Adalimumab) (antibody)”, for which the IC50 (read off the curve) in assay [2] came to 8 nM.

Consider “CMP-091 (biosimilar Adalimumab) (antibody; other documents disagree on this pair)”, for which the figures for the EC50 (read off the curve) (with Biotin hu TNFa (human); in assay [1]) were 0.08 nM and 0.05 nM, respectively.

The values are drawn from patent publication US20230201364A1.
